Test results reported in patent publication US9387246B2, “Treatment methods for rheumatoid arthritis” (priority 2013, dated 2016).

Experiments:
SAA = system: SAA; parameters: key: Y: biomarkers that are known to be positively affected by a treatment method (i.e., biomarkers that are known to have a favorable response to a treatment method); N: biomarkers that are not known to be positively affected by a treatment method (i.e., biomarkers that are known to have an unfavorable response to a treatment method); biomarkers that are known to be positively affected by a ORENCIA, the brand name of Atabacept; details: literature 1990-2012, ACR abstracts 2006-2013; cited from earlier work
[1] = system: Rheumatoid arthritis patients; experiment: Change in VECTRA DA Score after treatment (Example 2); assay type: in vivo, human; details: Patient 8
Description: The term “VECTRA DA Score” or “VECTRA DA MBDA Score” as used herein refers to a score obtained from an algorithm/formula that combines the concentrations of 12 serum protein biomarkers measured in VECTRA® DA test (Crescendo Bioscience, Inc.) into a single score that represents the level of rheumatoid arthritis disease activity on a scale of 1 to 100. A VECTRA DA Score of ≦29 reflects low disease activity, a VECTRA DA Score of >29 and ≦44 reflects moderate disease activity, and a VECTRA DA Score of >44 reflects high disease activity. VECTRA DA Score is provided in VECTRA DA test report.
VECTRA® DA test is a multi-biomarker disease activity (MBDA) blood test sold by Crescendo Bioscience. The test provides a quantitative assessment of rheumatoid arthritis disease activity in patients by using twelve protein biomarkers—Vascular Cell Adhesion Molecule 1 (VCAM-1), Epidermal Growth Factor (EGF), Vascular Endothelial Growth Factor A (VEGF-A), Interleukin-6 (IL-6), Tumor Necrosis Factor Receptor Type 1 (TNFR1), Matrix Metalloproteinase-1 (MMP-1), Matrix Metalloproteinase-3 (MMP-3), YKL-40, Leptin, Resistin, Serum Amyloid A (SAA), and C-Reactive Protein (CRP). […]
The patients were treated with the selected treatment methods for at least five months and the post-treatment biomarker levels and VECTRA DA Score were determined by VECTRA® DA test along with CRP level and ESR. […]

MMP-1 = system: MMP-1; parameters: key: Y: biomarkers that are known to be positively affected by a treatment method (i.e., biomarkers that are known to have a favorable response to a treatment method); N: biomarkers that are not known to be positively affected by a treatment method (i.e., biomarkers that are known to have an unfavorable response to a treatment method); biomarkers that are known to be positively affected by a ORENCIA, the brand name of Atabacept; details: literature 1990-2012, ACR abstracts 2006-2013; cited from earlier work
Leptin = system: Leptin; parameters: key: Y: biomarkers that are known to be positively affected by a treatment method (i.e., biomarkers that are known to have a favorable response to a treatment method); N: biomarkers that are not known to be positively affected by a treatment method (i.e., biomarkers that are known to have an unfavorable response to a treatment method); biomarkers that are known to be positively affected by a ORENCIA, the brand name of Atabacept; details: literature; Leptin usable as biomarker only in patients with 15% or less body fat; cited from earlier work
Resistin = system: Resistin; parameters: key: Y: biomarkers that are known to be positively affected by a treatment method (i.e., biomarkers that are known to have a favorable response to a treatment method); N: biomarkers that are not known to be positively affected by a treatment method (i.e., biomarkers that are known to have an unfavorable response to a treatment method); biomarkers that are known to be positively affected by a ORENCIA, the brand name of Atabacept; details: literature 1990-2012, ACR abstracts 2006-2013; cited from earlier work
[2] = system: Rheumatoid arthritis patients; assay type: in vivo, human
Description: A group of biomarkers having each biomarker with at least 40% elevated serum level than the serum level in a control set of RA patients from the InFoRM study (that was used to establish range of biomarker level in patients) was identified. Treatment methods were identified that are known to affect at least two biomarkers from among the selected biomarkers (using the Grid). Among the identified treatment methods, the methods were selected based on the patient's history—the methods that were contraindicated, were unsuccessful in treating the patient previously, or were known to cause an allergic response in the patient were avoided, and the treatment methods that were known to affect the maximum number of biomarkers or were known to affect the maximum number of the highest elevated biomarkers and were administered via patient's preferred route were selected and were administered to the patient. […] (hydroxychloroquine) and sulfasalazine were not used to treat the patients due to their clinical histories—[…] and sulfasalazine are mild drugs that work on mild cases of arthritis early in the disease process. […]
The treatment method (one method or a combination of methods) was determined to be effective when the post-treatment disease activity was lower than the pre-treatment disease activity in the patient: when VECTRA DA Score was lower than the pre-treatment VECTRA DA Score. Specifically, the treatment method was determined to be effective when the post-treatment disease activity was at least 20% lower than the pre-treatment disease activity, or when the VECTRA DA Score is decreased to a lower disease activity level after the treatment (i.e., from high to moderate, or high to low, or moderate to low).
If the first selected treatment method (one method or a combination of methods) was determined to be ineffective in the patient, then a second treatment method (one method or a combination of methods) was selected based on the similar protocol as discussed before. […]

VEGF-A = system: VEGF-A; parameters: key: Y: biomarkers that are known to be positively affected by a treatment method (i.e., biomarkers that are known to have a favorable response to a treatment method); N: biomarkers that are not known to be positively affected by a treatment method (i.e., biomarkers that are known to have an unfavorable response to a treatment method); biomarkers that are known to be positively affected by a ORENCIA, the brand name of Atabacept; details: literature 1990-2012, ACR abstracts 2006-2013; cited from earlier work
CRP = system: CRP; parameters: key: Y: biomarkers that are known to be positively affected by a treatment method (i.e., biomarkers that are known to have a favorable response to a treatment method); N: biomarkers that are not known to be positively affected by a treatment method (i.e., biomarkers that are known to have an unfavorable response to a treatment method); biomarkers that are known to be positively affected by a ORENCIA, the brand name of Atabacept; details: literature 1990-2012, ACR abstracts 2006-2013; cited from earlier work
MMP-3 = system: MMP-3; parameters: key: Y: biomarkers that are known to be positively affected by a treatment method (i.e., biomarkers that are known to have a favorable response to a treatment method); N: biomarkers that are not known to be positively affected by a treatment method (i.e., biomarkers that are known to have an unfavorable response to a treatment method); biomarkers that are known to be positively affected by a ORENCIA, the brand name of Atabacept; details: literature 1990-2012, ACR abstracts 2006-2013; cited from earlier work
VCAM-1 = system: VCAM-1; parameters: key: Y: biomarkers that are known to be positively affected by a treatment method (i.e., biomarkers that are known to have a favorable response to a treatment method); N: biomarkers that are not known to be positively affected by a treatment method (i.e., biomarkers that are known to have an unfavorable response to a treatment method); biomarkers that are known to be positively affected by a ORENCIA, the brand name of Atabacept; details: literature 1990-2012, ACR abstracts 2006-2013; cited from earlier work
[3] = system: Rheumatoid arthritis patients; experiment: Treatment outcome (effectiveness, clinical course) of treatment methods (Example 2); assay type: in vivo, human
Method: A group of biomarkers having each biomarker with at least 40% elevated serum level than the serum level in a control set of RA patients from the InFoRM study (that was used to establish range of biomarker level in patients) was identified. Treatment methods were identified that are known to affect at least two biomarkers from among the selected biomarkers (using the Grid). […]
The patients were treated with the selected treatment methods for at least five months and the post-treatment biomarker levels and VECTRA DA Score were determined by VECTRA® DA test along with CRP level and ESR. The change is VECTRA DA Score, CRP level and ESR was determined to determine the change in disease activity and effectiveness of the selected treatment method.
The treatment method was determined to be effective when the post-treatment disease activity was lower than the pre-treatment disease activity in the patient: when VECTRA DA Score was lower than the pre-treatment VECTRA DA Score and/or when post-treatment CRP level and/or post-treatment ESR was lower than the corresponding pre-treatment values.
If the first selected treatment method was determined to be ineffective in the patient, then a second treatment method was selected based on the similar protocol as discussed before.

IL-6 = system: IL-6; parameters: key: Y: biomarkers that are known to be positively affected by a treatment method (i.e., biomarkers that are known to have a favorable response to a treatment method); N: biomarkers that are not known to be positively affected by a treatment method (i.e., biomarkers that are known to have an unfavorable response to a treatment method); biomarkers that are known to be positively affected by a ORENCIA, the brand name of Atabacept; details: literature 1990-2012, ACR abstracts 2006-2013; cited from earlier work
YKL-40 = system: YKL-40; parameters: key: Y: biomarkers that are known to be positively affected by a treatment method (i.e., biomarkers that are known to have a favorable response to a treatment method); N: biomarkers that are not known to be positively affected by a treatment method (i.e., biomarkers that are known to have an unfavorable response to a treatment method); biomarkers that are known to be positively affected by a ORENCIA, the brand name of Atabacept; details: literature 1990-2012, ACR abstracts 2006-2013; cited from earlier work

Q: Which “SAA positively affected by treatment method” value (SAA) does the source give for Abatacept [ATAB] here?
A: N

Q: What about the “VECTRA DA disease activity state after treatment” value ([1]; March 2013) of the same substance?
A: (low disease (A VECTRA DA Score of ≦29 reflects low disease activity)

Q: And the “VECTRA DA Score - Decreased by” value ([1]; treatment December 2012-June 2013, score March 2013)?
A: Decreased by 20

Q: What about the “MMP-1 positively affected by treatment method” value (MMP-1) of the same substance?
A: N

Q: What about the “Leptin positively affected by treatment method” value (Leptin) of the same substance?
A: O

Q: What about the “Resistin positively affected by treatment method” value (Resistin) of the same substance?
A: N

Q: What about the “Outcome of previous treatment” value ([2]; Patient 2, before August 2012) of the same substance?
A: unsuccessful

Q: What about the “Reason for replacement of treatment” value ([2]; Patient 7, June 2013) of the same substance?
A: lack of efficacy,

Q: And the “Treatment effectiveness (reason for discontinuation / earlier trial)” value ([2]; patient 16, January 2014)?
A: to inefficacy

Q: What about the “VEGF-A positively affected by treatment method” value (VEGF-A) of the same substance?
A: N

Q: What about the “CRP positively affected by treatment method” value (CRP) of the same substance?
A: Y

Q: And the “MMP-3 positively affected by treatment method” value (MMP-3)?
A: Y

Q: What about the “VCAM-1 positively affected by treatment method” value (VCAM-1) of the same substance?
A: Y

Q: What about the “Treatment Outcome” value ([3]; Patient 8, MTX not algorithm-selected, ORENCIA December 2012-June 2013, based on VECTRA DA score) of the same substance?
A: Effective,

Q: And the “Treatment Outcome” value ([3]; Patient 10, MTX (November 2011) and ORENCIA (August-December 2012) not algorithm-selected, HUMIRA December 2012-June 2013, based on VECTRA DA Score)?
A: Not effective

Q: And the “IL-6 positively affected by treatment method” value (IL-6)?
A: Y

Q: What about the “YKL-40 positively affected by treatment method” value (YKL-40) of the same substance?
A: N
